Paper PMC8470279, “Biosynthesis of the Novel Endogenous 15-Lipoxygenase Metabolites N-13-Hydroxy-octodecadienoyl-ethanolamine and 13-Hydroxy-octodecadienoyl-glycerol by Human Neutrophils and Eosinophils” (Cells, 2021)

Amino acid sequences for entries named in this document (tags omitted).
UniProt Q8NER1, whole entry: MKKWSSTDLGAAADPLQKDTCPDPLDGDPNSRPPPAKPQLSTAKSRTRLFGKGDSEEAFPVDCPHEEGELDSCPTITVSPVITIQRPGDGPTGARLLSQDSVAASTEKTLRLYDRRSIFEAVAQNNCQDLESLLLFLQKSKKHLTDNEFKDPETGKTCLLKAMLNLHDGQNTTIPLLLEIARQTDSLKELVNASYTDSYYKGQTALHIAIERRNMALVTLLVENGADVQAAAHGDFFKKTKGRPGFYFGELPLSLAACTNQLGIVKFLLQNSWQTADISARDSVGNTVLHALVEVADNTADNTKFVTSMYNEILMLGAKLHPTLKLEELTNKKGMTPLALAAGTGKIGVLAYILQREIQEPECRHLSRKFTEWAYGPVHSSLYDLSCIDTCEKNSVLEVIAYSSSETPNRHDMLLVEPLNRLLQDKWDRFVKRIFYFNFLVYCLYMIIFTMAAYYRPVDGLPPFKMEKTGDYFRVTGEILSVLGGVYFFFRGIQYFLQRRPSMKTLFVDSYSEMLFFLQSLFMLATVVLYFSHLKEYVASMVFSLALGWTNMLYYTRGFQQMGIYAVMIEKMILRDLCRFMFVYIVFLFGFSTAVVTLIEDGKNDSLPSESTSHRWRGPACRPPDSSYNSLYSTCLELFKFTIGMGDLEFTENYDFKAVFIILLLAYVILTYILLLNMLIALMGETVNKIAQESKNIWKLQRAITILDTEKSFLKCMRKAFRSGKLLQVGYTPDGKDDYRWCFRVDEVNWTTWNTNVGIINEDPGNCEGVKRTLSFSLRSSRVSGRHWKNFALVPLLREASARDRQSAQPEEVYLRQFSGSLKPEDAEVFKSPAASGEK
UniProt P21554, whole entry: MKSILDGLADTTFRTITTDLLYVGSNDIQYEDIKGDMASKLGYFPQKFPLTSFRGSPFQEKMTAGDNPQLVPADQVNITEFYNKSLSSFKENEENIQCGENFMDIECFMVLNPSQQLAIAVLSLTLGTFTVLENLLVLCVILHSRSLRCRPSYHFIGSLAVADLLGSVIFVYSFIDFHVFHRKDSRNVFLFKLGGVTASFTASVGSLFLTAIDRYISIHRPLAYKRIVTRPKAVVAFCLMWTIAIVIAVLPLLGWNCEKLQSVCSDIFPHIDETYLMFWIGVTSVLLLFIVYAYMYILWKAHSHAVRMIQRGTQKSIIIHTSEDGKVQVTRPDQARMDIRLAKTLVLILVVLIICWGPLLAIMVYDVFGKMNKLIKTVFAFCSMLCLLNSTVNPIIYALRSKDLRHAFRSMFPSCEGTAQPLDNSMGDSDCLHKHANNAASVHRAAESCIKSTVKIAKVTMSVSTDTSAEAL
UniProt P34972, whole entry: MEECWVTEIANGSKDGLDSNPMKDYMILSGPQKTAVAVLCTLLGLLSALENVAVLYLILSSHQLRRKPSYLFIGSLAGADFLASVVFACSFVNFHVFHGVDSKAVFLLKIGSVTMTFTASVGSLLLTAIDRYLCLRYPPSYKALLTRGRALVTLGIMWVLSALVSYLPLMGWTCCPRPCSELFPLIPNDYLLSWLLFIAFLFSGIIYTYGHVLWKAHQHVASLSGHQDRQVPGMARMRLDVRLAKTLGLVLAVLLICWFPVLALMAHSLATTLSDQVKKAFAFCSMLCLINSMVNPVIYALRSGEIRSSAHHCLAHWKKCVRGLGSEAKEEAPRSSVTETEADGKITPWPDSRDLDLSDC

Assays:
Settings in all cases: mean ± SD
human recombinant TRPV1 = human recombinant TRPV1 (Homo sapiens, UniProt Q8NER1); assay: TRPV1-mediated intracellular calcium elevation; format: cell-based
From the text: These assays we preformed exactly as described in [21].

[1] = target: human recombinant CB1 receptor (Homo sapiens, UniProt P21554); assay: CB1 receptor binding assay
Protocol: (§1) The analysis of CB1 and CB2 receptor binding was performed exactly as described in [21].

[2] = target: human recombinant CB2 receptor (Homo sapiens, UniProt P34972); assay: CB2 receptor binding assay
Protocol: as §1

CCCCC/C=C\C/C=C\C/C=C\C/C=C\CCCC(=O)OCC(O)CO (centres unmarked)
Efficacy (% Max Response) (human recombinant TRPV1; intracellular calcium elevation): 58.9 ± 1.2% | IC50 (human recombinant TRPV1; read-out: Desensibilization (IC50), assayed using 100 nM capsaicin): 1100 nM | EC50 (human recombinant TRPV1; read-out: Potency (EC50), intracellular calcium elevation): 390 nM | CB1 Receptor Max Tested (% Displacement) ([1]; 10 µM): 10 µM (90.4 ± 1.3) % | IC50 ([1]; read-out: CB1 Receptor IC50): 1320 nM | Ki ([1]; read-out: CB1 Receptor Ki): 150 nM | CB2 Receptor Max Tested (% Displacement) ([2]; 10 µM): 10 µM (75.52 ± 2.4) % | IC50 ([2]; read-out: CB2 Receptor IC50): 1020 nM
